From patent US8802711B2, “TRPV1 antagonists” (AbbVie Inc., priority 2011, dated 2014)

Sequences of proteins named here, by UniProt entry; tags and fusion partners are left off.
UniProt Q8NER1, whole entry: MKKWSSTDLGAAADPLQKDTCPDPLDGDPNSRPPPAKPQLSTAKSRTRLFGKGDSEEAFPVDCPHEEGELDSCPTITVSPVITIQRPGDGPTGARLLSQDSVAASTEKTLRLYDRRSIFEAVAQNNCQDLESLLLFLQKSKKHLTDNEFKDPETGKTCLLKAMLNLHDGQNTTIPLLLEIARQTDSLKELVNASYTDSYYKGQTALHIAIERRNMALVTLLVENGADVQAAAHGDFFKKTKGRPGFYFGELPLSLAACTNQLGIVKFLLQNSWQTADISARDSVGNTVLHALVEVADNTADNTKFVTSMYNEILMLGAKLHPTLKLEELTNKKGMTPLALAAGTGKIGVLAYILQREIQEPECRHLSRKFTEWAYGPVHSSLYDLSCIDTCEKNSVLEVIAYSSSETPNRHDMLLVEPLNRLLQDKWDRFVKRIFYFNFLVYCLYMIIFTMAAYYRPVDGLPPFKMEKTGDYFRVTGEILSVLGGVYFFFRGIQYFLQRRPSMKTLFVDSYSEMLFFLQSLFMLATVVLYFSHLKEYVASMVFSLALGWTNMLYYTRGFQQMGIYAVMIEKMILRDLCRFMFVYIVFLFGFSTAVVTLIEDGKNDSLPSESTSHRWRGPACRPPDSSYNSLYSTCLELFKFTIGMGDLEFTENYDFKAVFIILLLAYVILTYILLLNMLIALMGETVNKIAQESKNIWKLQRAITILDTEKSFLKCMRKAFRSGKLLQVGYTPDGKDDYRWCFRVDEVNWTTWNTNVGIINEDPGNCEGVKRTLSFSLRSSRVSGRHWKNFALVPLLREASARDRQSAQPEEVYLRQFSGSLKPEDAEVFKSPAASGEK

Biological target: human TRPV1 receptor (hTRPV1) (Homo sapiens (Human), UniProt Q8NER1)
Assay: Capsaicin activation assay (FLIPR intracellular Ca2+)
Assay type: cell-based
Details: Table 1; inhibition of capsaicin-induced intracellular Ca2+ increase, HEK293 cells expressing human TRPV1; read-out: hTRPV1 cap IC50
Experimental: Dulbecco's modified Eagle medium (D-MEM) (with 4.5 mg/mL glucose) and fetal bovine serum were obtained from Hyclone Laboratories, Inc. (Logan, Utah). Dulbecco's phosphate-buffered saline (D-PBS) (with 1 mg/mL glucose and 3.6 mg/l Na pyruvate, without phenol red), L-glutamine, hygromycin B, and Lipofectamine® were obtained from Life Technologies (Grand Island, N.Y.). G418 sulfate was obtained from Calbiochem-Novabiochem Corp. (San Diego, Calif.). Capsaicin (8-methyl-N-vanillyl-6-nonenamide) was obtained from Sigma-Aldrich, Co. (St. Louis, Mo.). Fluo-4 AM (N-[4-[6-[(acetyloxy)methoxy]-2,7-difluoro-3-oxo-3H-xanthen-9-yl]-2-[2-[2-[bis[2-[(acetyloxy)methoxy]-2-oxyethyl]amino]-5-methyl phenoxy]ethoxy]phenyl]-N-[2-[(acetyloxy)methoxy]-2-oxyethyl]-glycine, (acetyloxy)methyl ester) was purchased from Molecular Probes (Eugene, Oreg.). […]
The functional activity of compounds at the TRPV1 receptor was determined by measurement of intracellular Ca^2+ levels ([Ca^2+]i) using the Fluorescence Imaging Plate Reader (FLIPR)^TETRA®. All compounds were tested over a 12-point one-third-log concentration range. Compound stocks, 10 mM, were prepared in DMSO, and diluted serially across a 384-well plate using a Bravo BenchCel workstation (Agilent Technologies, Santa Clara, Calif.). A stock concentration of capsaicin (10 mM) was made in DMSO, and diluted in D-PBS to a final concentration of 200 nM (4×). On the day prior to the experiment, recombinant HEK293 cells that stably express human TRPV1 were removed from tissue culture flasks and plated in growth medium into black-walled clear-bottom 384-well Biocoat™ poly-D-lysine assay plates (BD Biosciences, Bedford, Mass.) using a Multidrop® dispenser (ThermoScientific, Waltham, Mass.). On the day of the experiment, growth medium was removed, and the no-wash FLIPR® Calcium-4 dye (λEX=470-495 nm, λEM=515-575 nm; Molecular Devices, Sunnyvale, Calif.) was added to each well using the Multidrop® dispenser. Cells were incubated for 90-120 minutes in the dark at room temperature. Test compounds were added to the cells 3 minutes prior to the addition of 200 nM capsaicin (4×), and the final assay volume was 80 μL. Fluorescence readings were made at 1 to 5 second intervals over the course of the experimental run. The peak increase in relative fluorescence units (minus baseline) was calculated, and expressed as a percentage of the 50 nM capsaicin (control) response.

Compound	IC50 [µM]
Cc1cnc([C@@H]2CC[C@H](NC(=O)Nc3cccc4[nH]ncc34)C2)o1 (stereo in doubt) [Example 126, 1-(1H-indazol-4-yl)-3-[(1S*,3R*)-3-(5-methyl-1,3-oxazol-2-yl)cyclopentyl]urea]	0.997
Cc1cc2c(NC(=O)N[C@H]3CC[C@@H](c4ncc(C)o4)C3)c(F)ccc2cn1 (stereo in doubt) [Example 125, 1-(6-fluoro-3-methylisoquinolin-5-yl)-3-[(1S*,3R*)-3-(5-methyl-1,3-oxazol-2-yl)cyclopentyl]urea]	1.46
O=C(Nc1cccc2[nH]ncc12)N[C@H]1CC[C@H](c2ccccn2)C1 (racemic) [Example 39, 1-(1H-indazol-4-yl)-3-[trans-3-(pyridin-2-yl)cyclopentyl]urea]	0.862
Cc1cnc([C@H]2CC[C@@H](NC(=O)Nc3cccc4[nH]ncc34)C2)o1 (stereo in doubt) [Example 128, 1-(1H-indazol-4-yl)-3-[(1R*,3S*)-3-(5-methyl-1,3-oxazol-2-yl)cyclopentyl]urea]	8.64
Cc1cc2c(NC(=O)N[C@@H]3CC[C@H](c4ncc(C)o4)C3)c(F)ccc2cn1 (stereo in doubt) [Example 127, 1-(6-fluoro-3-methylisoquinolin-5-yl)-3-[(1R*,3S*)-3-(5-methyl-1,3-oxazol-2-yl)cyclopentyl]urea]	5.76
O=C(Nc1cccc2[nH]ncc12)N[C@H]1CC[C@@H](c2ccccn2)C1 (relative stereo) [Example 38, 1-(1H-indazol-4-yl)-3-[cis-3-(pyridin-2-yl)cyclopentyl]urea]	0.499
O=C(Nc1cccc2[nH]ncc12)N[C@@H]1CCC(c2nc(C(F)(F)F)cs2)C1 (stereo partly drawn) [Example 131, 1-(1H-indazol-4-yl)-3-{(1R)-3-[4-(trifluoromethyl)-1,3-thiazol-2-yl]cyclopentyl}urea]	0.133
Cc1csc([C@H]2CC[C@H](NC(=O)Nc3cccc4[nH]ncc34)C2)n1 (relative stereo) [Example 119, 1-(1H-indazol-4-yl)-3-[(trans)-3-(4-methyl-1,3-thiazol-2-yl)cyclopentyl]urea]	0.72
